Assay [1] deals with human neuroblastoma cells NXS2. The experiment in a line: NXS2 xenografted mice, survival. It counts as in vivo. As to conditions: 10 mg/kg i.v. day 3, 5, 7, 9, 11. Here is the method:
Xenograft tumors were established in immunocompetent A/J mice by injecting […] neuroblastoma cells, NXS2, in the adrenal gland.
The immunocompetent mice were injected with another […] NB cell, NXS2 of 5×10^4 cells or 5×10^5 cells in the left adrenal gland. Tumors were allowed to grow for 2 days and reached the average volume of approximately 200 mm^3. […] Control group received HEPES-buffered saline. Survival time was used as the criteria for determining treatment efficacy.

In assay [2] the test system is human neuroblastoma cells (GI-LI-N). Description: Orthotopic human neuroblastoma (GI-LI-N) xenografted mice. It counts as in vivo, mouse (human tumor xenograft).
The test system of assay [3] is human neuroblastoma cells (HTLA-230). The experiment in a line: Pseudometastatic human neuroblastoma (HTLA-230) xenografted mice, survival. The assay is classed as in vivo. The method, then:
Xenografts were established in mice by injecting human neuroblastoma cells (HTLA-230) intravenously at zero time point.
Four-week-old female athymic nude (nu/nu) mice were purchased from Harlan Laboratories (Harlan Italy-S.Pietro al Natisone, UD). Eight mice/group were injected with the human NB cell line, HTLA-230 (3.5×10^6 cells in 200 μl of HEPES-buffered saline) in the tail vein (i.v.) on day 0. The mice were then randomly assigned to each test group (8 mice per group). […] Control group received HEPES-buffered saline. The mice were monitored routinely for weight loss. Survival times were used as the criteria for determining treatment efficacy.
(A xenograft is tissue or cells of one species grown in another, often human tumour cells in immunodeficient mice.)

In assay [4] the test system is Human neuroblastoma cells, SH-SY5Y. The experiment in a line: SH-SY5Y xenografted mice, bioluminescence imaging. The assay is classed as in vivo. The method, then:
Human neuroblastoma cells, SH-SY5Y, were injected subcutaneously in the right flank of SCID mice at day 0. The SH-SY5Y cells were human neuroblastoma cells transfected with luciferase.
The luciferase-expressing neuroblastoma cells were visualized by bioluminescence imaging (BLI). Lateral images showing the site of tumor implantation were taken at day 0 (T0), and over time (T12-50). […] The BLI intensity increases as the BLI color grades from blue to red. Less luminescence meant less neuroblastoma cells in the mice. Antitumor effects were evaluated by changes in luminescence.

With “^40k4arm-PEG-Gly(20)-(7-ethyl-10-hydroxycamptothecin) [Compound 9]”, the mice survived is 100% in assay [1] (A/J mice challenged with 5×10^4 NXS2 tumor cells) and “about 40%” in assay [1] (A/J mice challenged with 5×10^5 NXS2 tumor cells). Moreover, the survival rate was determined as 100% in assay [2] (GI-LI-N orthotopic (Example 27), 10 mg/kg i.v. day 21, 23, 25, 27, 29, 100 days after the tumor cell implantation) and 100% in assay [3] (HTLA-230 i.v. in nude mice, 10 mg/kg i.v. q2d×5 from 24 or 72 hours, 150 days after the cancer injection). Further, the “life span compared to the control mice or those treated with CPT-11” value is reported as “significantly increased life span” in assay [2] (GI-LI-N orthotopic (Example 27), 10 mg/kg q2d×5); “significantly increased life span” in assay [2] (GI-LI-N orthotopic (Example 30), 10 mg/kg day 21, 23, 25, 27, 29); “significantly increased life span” in assay [3] (HTLA-230, 10 mg/kg q2d×5, both 24 and 72 hours after cell injection). Also, the “primary tumor growth (tumor size)” value in assay [2] (GI-LI-N orthotopic (Examples 27, 28), 10 mg/kg q2d×5) was “dramatic arrest and regression”. Moreover, the “histological examination, neuroblastoma marker (NB84, Ki-67) positive cells” value in assay [2] (GI-LI-N orthotopic, tumors removed at day 50) was “free or nearly free of neuroblastoma marker-positive cells”. Moreover, in assay [4] (SH-SY5Y s.c. in SCID mice, 10 mg/kg/dose every other day, 5 doses), the “antitumor effect, neuroblastoma cells quantified based on luminescence” value is “Primary tumor regression”. In addition, in assay [4] (in vivo, sc, 10 mg/kg), the “tumor cells by bioluminescence imaging” value is “very few tumor cells”.
